ChEMBL document CHEMBL2321726, “Identification of selective inhibitors for human neuraminidase isoenzymes using C4,C7-modified 2-deoxy-2,3-didehydro-N-acetylneuraminic acid (DANA) analogues” (J Med Chem, 2013)

Target: T1, Sialidase-4 (Homo sapiens, UniProt Q8WWR8)
T1 sequence (Q8WWR8 whole entry): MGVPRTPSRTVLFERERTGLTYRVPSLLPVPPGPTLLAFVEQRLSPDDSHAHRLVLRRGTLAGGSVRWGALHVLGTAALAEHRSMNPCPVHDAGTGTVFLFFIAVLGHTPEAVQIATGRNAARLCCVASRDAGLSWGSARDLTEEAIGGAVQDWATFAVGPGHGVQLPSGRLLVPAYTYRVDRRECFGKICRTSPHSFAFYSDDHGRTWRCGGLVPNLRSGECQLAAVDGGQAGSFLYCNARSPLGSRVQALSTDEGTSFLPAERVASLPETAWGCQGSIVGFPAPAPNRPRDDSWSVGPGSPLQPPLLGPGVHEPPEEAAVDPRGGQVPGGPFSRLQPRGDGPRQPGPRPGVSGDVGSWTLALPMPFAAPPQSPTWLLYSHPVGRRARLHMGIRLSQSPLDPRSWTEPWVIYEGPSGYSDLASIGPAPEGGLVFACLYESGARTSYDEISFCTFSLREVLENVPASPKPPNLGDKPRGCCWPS
Assay: Inhibition of human neuraminidase 4 using 4MU-NANA as substrate after 30 mins by fluorescence assay
Summary of the method: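 GST-fusion enzyme, assayed in 0.1 M sodium acetate pH 4.5. Inhibitor diluted 3-fold serially from 1 mM final, incubated 15 min at 37 °C with enzyme, then 4MU-NANA (50 μM final) 30 min at 37 °C. Stopped with 0.2 M sodium glycinate pH 10.7; fluorescence ex 365/em 445 nm. Four replicates; IC50 from nonlinear regression.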

In the case of CC(=O)N[C@H]1[C@H]([C@H](O)[C@H](O)CO)OC(C(=O)O)=C[C@@H]1O [NEU5AC2EN], the IC50 is reported as 13 µM.
